Antibody variant affinities, Ab-14 light chain, assay B

The measurements come from Li et al. 2023 (doi:10.1038/s41467-023-39022-2) through the FLAb antibody collection.

Binding partner: SARS-CoV-2 spike HR2 peptide, sequence PDVDLGDISGINAS.

Ab-14 is the parent antibody, in scFv form: VH, then three GGGGS repeats, then VL. The heavy chain is unchanged in all variants.
VH: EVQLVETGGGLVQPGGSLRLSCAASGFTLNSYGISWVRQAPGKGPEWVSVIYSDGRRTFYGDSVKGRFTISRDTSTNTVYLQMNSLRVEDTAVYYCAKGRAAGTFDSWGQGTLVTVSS
VL: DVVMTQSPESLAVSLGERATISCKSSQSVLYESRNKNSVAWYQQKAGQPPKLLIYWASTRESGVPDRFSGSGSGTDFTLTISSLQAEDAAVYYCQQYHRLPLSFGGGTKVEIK

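The parent was found by panning a naive human phage display library on the peptide. The variants were designed computationally from a first round of random CDR variants and then made and measured. Their group label is 14L_En_Gen (En: ensemble of fine-tuned language models; Gen: genetic algorithm). The assay is AlphaSeq: two haploid yeast populations carry antibody and antigen on their surface. The frequency of each diploid, read from paired DNA barcodes, reflects how well the two displayed proteins bind. Scores were corrected for input abundance and mapped to Kd with protein pairs of known affinity run in the same pool. Mating was done six times.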

The parent's light chain CDRs are KSSQSVLYESRNKNSVA, WASTRES, QQYHRLPLS; each variant's own CDRs replace them letter for letter.
Affinities are written as log10 Kd with Kd in nM; a lower number is a better binder.
"n.d." means that the variant was in the library but no mating with the target was seen in that replicate; the authors take this as a sign of poor binding, and no number exists.
The parent sequence was in this pool as ten entries: three were never detected, three once, and four in most replicates, with averages from 0.34 to 2.37.
A sequence measured in both rounds can read differently, since the two assays cover different ranges.
Three control strains display no target. For all light chain designs, 4% of the pairings with them gave a signal, with a median of 2.64 and one signal in twenty below 1.59, so weak values seen in few replicates may be background. For each scFv, signals with the empty controls are counted beside the result, with their mean in brackets.
In the paper, a design with two or fewer of six values counts as a poor binder.

CDR-L1 | CDR-L2 | CDR-L3 | replicates, log10 nM | empty controls
IIDQIMYHGNKHVNSIA | QASQRLN | QQYHHLPLQ | n.d. / n.d. / n.d. / 2.97 / n.d. / 2.06 | 3 of 18 (2.20)
KLSSVTGTEKVHGNNVA | EMETRER | QQYNRLPLA | 0.35 / 0.39 / 0.08 / -0.10 / -0.04 / 0.30 | 0 of 18
MVSNLMLWGLHTKNSIA | EAQTRIN | QQYDRLPLF | 1.67 / 1.89 / 0.78 / 1.17 / 0.79 / 1.60 | 0 of 18
KLSMVTGHMSMAKNNVA | EMVTREN | QQYNRLPLS | 0.15 / 0.11 / 0.15 / 0.03 / 0.13 / 0.64 | 3 of 18 (2.31)
HITMGMYVSGRHHSSIA | QAETRAK | QQYDRLPLA | 0.70 / 0.61 / -0.19 / 0.20 / 0.83 / 0.60 | 0 of 18
KLTQTMRFEQKKKNNIA | EVSERSK | QQYFRLPLA | 1.14 / 0.98 / 0.70 / 1.16 / 1.92 / 1.35 | 0 of 18
MIAQMLGWESNKINSVA | QANLRCE | QQYDRLPLE | 1.16 / 1.36 / 0.92 / 2.07 / 1.16 / 1.86 | 0 of 18
TLYGLSVSMSKNKNSVA | EMTTREK | QQYDRLPLI | 1.76 / 0.99 / 1.00 / 1.66 / 1.48 / 1.45 | 0 of 18
MISQLMNMGQFAINSVA | QASIRNE | QQYDRLPLG | n.d. / 1.35 / 1.55 / 1.91 / 1.87 / 1.64 | 2 of 18 (2.96)
MISQLYNYGTFAINSVA | QASIRCN | QQYDRLPLM | n.d. / 2.08 / n.d. / n.d. / 2.27 / 2.43 | 1 of 18 (1.79)
MISQLQNMGTFAINSVA | QASLRNE | QQYDRLPLI | n.d. / 1.66 / 1.05 / 1.42 / 1.16 / 2.45 | 1 of 18 (2.00)
KIGMTLNQMMHKKNNVA | DLVMREN | QQYFRLPLS | 0.79 / 0.87 / 0.79 / 0.77 / 0.85 / 0.68 | 0 of 18
TISQITSLFTQNIANVA | EVSTREN | QQYDRLPLS | 0.53 / n.d. / n.d. / 1.91 / n.d. / n.d. | 0 of 18
MVSQLMLWGLHAKNSIA | EAQMRLN | QQYDRLPLF | n.d. / n.d. / n.d. / 1.29 / n.d. / n.d. | 0 of 18
TISQVMNTLTRHGNNVA | DLQEREK | QQYFRLPLS | 1.37 / 2.60 / 1.45 / 1.76 / 1.65 / 1.66 | 0 of 18
HMSMLTMLGSRNRNSVA | QMTTREN | QQYDRLPLA | n.d. / 2.51 / 2.42 / 0.99 / 1.81 / 1.16 | 0 of 18
TIGGTLMYGSRNRSNVA | EVSERLN | QQYDRLPLF | 1.50 / 1.04 / 0.43 / 0.64 / 0.34 / 0.92 | 0 of 18
HISMITLQGMRQRNSVA | QMTTRVN | QQYDRLPLA | 1.01 / 0.39 / 0.25 / 0.97 / 0.66 / 0.31 | 0 of 18
TISMFMDNMSHNRNNVA | DTSTLGD | QSYDRLPLS | 1.21 / 1.10 / 0.70 / 1.14 / 1.34 / 1.27 | 3 of 18 (2.77)
HMSMLTLQGQRHRNSVA | QMTTREN | QQYDHLPLS | 0.92 / 0.49 / 0.41 / 0.44 / 0.42 / 0.67 | 1 of 18 (2.93)
MVNGIMDHLSKQTNNVA | ETTTRES | QQYDRLPLQ | 0.68 / 0.73 / 0.71 / 0.42 / 0.71 / 0.74 | 2 of 18 (2.93)
KLYDMSALTVTNIRNVA | DNTTREQ | QQYHRLPLS | 2.35 / 2.18 / 1.06 / 1.20 / 1.10 / n.d. | 1 of 18 (1.45)
KVSEFTRGLMSRQDSIA | DNVTREN | QQYDRLPLS | n.d. / 2.98 / n.d. / 2.71 / n.d. / 2.54 | 0 of 18
HLSSMSLTETVKSRNVA | ENNTREQ | QQYDRLPLS | 1.38 / 1.16 / 1.46 / n.d. / 1.23 / 1.28 | 1 of 18 (2.71)
KLSQITGHLSVSKNNVA | EMVTRYN | QQYDRLPLS | 1.90 / n.d. / 2.14 / 1.60 / 3.51 / 2.46 | 1 of 18 (2.74)
KISQMVRVGSTVSNSIA | EEVTRMK | QQYHRLPLA | 0.66 / 0.64 / 0.50 / 0.44 / 0.70 / 0.55 | 1 of 18 (2.13)
IVSQIMLWGMHLKNSIA | EAQTRLN | QQYDRLPLF | n.d. / n.d. / n.d. / n.d. / n.d. / n.d. | 0 of 18
MIGEMLMQGAYKKNSVA | QANLRAE | QHYHRLPLE | 0.76 / 0.85 / 0.63 / 0.70 / 0.62 / 0.83 | 0 of 18
TISQLHNMGTFAINSVA | QAEIRNA | QQYDRLPLT | 1.74 / 0.75 / 1.05 / 0.54 / 1.23 / 1.06 | 0 of 18
KVSSFMRGLMMRTDSIA | DNETRSN | QQYDRLPLS | 1.87 / 1.64 / 0.84 / n.d. / 0.84 / 1.42 | 0 of 18
SLGLVTMLEYAGRNNVA | NNSTRES | QQYDRLPLS | 1.77 / 1.28 / 1.84 / 1.73 / 1.61 / 1.61 | 3 of 18 (3.09)
QLSMITGHQSVSKNNVA | EMETREE | QQYDRLPLS | 0.61 / 0.47 / 0.58 / 0.22 / 0.56 / 0.76 | 1 of 18 (3.65)
KIGQTLNQLMHQKNNVA | DLVMREK | QQYHRLPLS | 0.80 / 0.84 / 0.53 / 0.49 / 0.77 / 0.64 | 1 of 18 (4.35)